Measured values taken from patent US6977272B2, “Method for antagonizing inhibition effects of alcohol on cell adhesion” (President and Fellows of Harvard College, priority 2002, dated 2005).

System: L1-mediated cell-cell adhesion in human L1-transfected NIH/3T3 cells (2B2-L1, 2A2-L1)
Assay: Cell aggregation (cell-cell adhesion) assay in ethanol-sensitive, human L1-transfected NIH/3T3 cells
Type: cell-based
Settings: 1-butanol on L1-expressing NIH/3T3 cells
Protocol: NIH/3T3 cells were cultured at 37° C. in Dulbecco's […] Eagle medium (DMEM) (Invitrogen, Carlsbad, Calif.) supplemented with 10% normal calf serum (Intergen, Purchase, N.Y.) and 400 μg/ml G418 (Life Technologies), in an atmosphere of 90% air and 10% CO2. Three subclones were utilized in these studies: 2B2-L1, 2A2-L1 and Vec-1A5.
Cell adhesion assays were performed in the absence and presence of the compounds, listed below in Table 1. […] The aqueous concentration of each antagonist was calculated to produce membrane concentrations equivalent to 100 mM ethanol. Membrane/buffer partition coefficients (Pm/b) were obtained or calculated from published octanol/water partition coefficients.
Cells were detached by gentle agitation in calcium-free and magnesium-free PBS supplemented with 0.1 mg/ml. […] Cells were viewed at a final magnification of 200× and each well was scored for single and adherent cells in five to six microscopic fields of view. Approximately 100 cells per field of view and 600 cells per well were counted. The percent of adherent cells was calculated for each microscopic field of view and then averaged for each well.
Agonists and antagonists were initially tested at aqueous concentrations that were calculated to produce molar membrane concentrations (˜10 mM) equivalent to those produced by an aqueous concentration of 100 mM ethanol (ECEQ). […]

1-butanol [reference compound]
concentrations that altered membrane morphology: above 75 mM
